# Yeast mating assay 1: variants of the scFv Ab-14

Values reported by Engelhart et al. 2022, doi:10.1038/s41597-022-01779-4 (FLAb copy).

Target: peptide PDVDLGDISGINAS, taken from heptad repeat 2 (HR2) of SARS-CoV-2 spike.

Parent scFv Ab-14: VH joined to VL by the linker GGGGSGGGGSGGGGS. Changes lie in the light chain CDRs alone.
VH: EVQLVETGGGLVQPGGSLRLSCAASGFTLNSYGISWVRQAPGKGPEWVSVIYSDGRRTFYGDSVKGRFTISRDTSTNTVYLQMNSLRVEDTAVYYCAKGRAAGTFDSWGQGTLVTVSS
VL: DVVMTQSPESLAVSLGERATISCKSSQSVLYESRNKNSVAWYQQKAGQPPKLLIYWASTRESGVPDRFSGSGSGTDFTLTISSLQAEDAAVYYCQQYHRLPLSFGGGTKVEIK

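Library AAYL50 holds single substitutions and randomly drawn double and triple substitutions in the CDRs. Affinity was read by AlphaSeq, a pooled yeast mating assay with surface-displayed partners. The frequency of each diploid, read from paired DNA barcodes, reflects how well the two displayed proteins bind. A regression on co-assayed BCL2-family reference pairs converts the normalised counts of each replicate to an apparent Kd. Mating was done three times.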

Variants are written as CDR1, CDR2 and CDR3 of the light chain (limits as in the source). Parent: KSSQSVLYESRNKNSVA, WASTRES, QQYHRLPLS. Each Kd is an estimate from the mating assay, the geometric mean of the replicates in which the pair was seen; lower is stronger. An entry "not detected" has no value in the source: the pair was not observed among the diploids in any replicate. This suggests poor binding but is not conclusive. Order: sorted from the lowest average up, undetected variants last. Background: pairings of library AAYL50 with three empty control strains gave a value in 18% of cases (median 15 µM, 5th percentile 970 nM). Values in that range, when seen in few replicates, are hard to tell from nonspecific mating. For each scFv, signals with the empty controls are counted beside the result. Parent in this assay: reference entry 4.4 nM, copy in this library 48 nM.

CDR-L1 | CDR-L2 | CDR-L3 | Kd | replicates with signal | control signals
KSSQSVLYESRNKRGVA | SASTRES | QQYHRLPLS | 980 pM | 3 of 3 | 3 of 9
KSSQSVLYESRNENVVA | NASTRES | QQYHRLPLS | 1.3 nM | 3 of 3 | 0 of 9
KSSQSVLYESKNQNSVA | WASTRES | NQYHRLPLS | 1.4 nM | 3 of 3 | 3 of 9
KCSQSVLPESRNKNSVA | WASTRES | QQYHRLPLS | 2.5 nM | 3 of 3 | 1 of 9
KSSQSVLFESRNKNSVA | TASTRES | QQTHRLPLS | 2.6 nM | 3 of 3 | 3 of 9
ASSQSVLYESRNKNSVA | GASTRES | QQYHRIPLS | 2.7 nM | 3 of 3 | 0 of 9
KSSQSVLYEHPNKNSVA | WASTRES | QQYVRLPLS | 4.0 nM | 3 of 3 | 3 of 9
KISQSVLYESRNKNSLA | WASTRES | QQYDRLPLS | 4.6 nM | 3 of 3 | 1 of 9
KSSQHVLYESRNKNSVA | WASTRED | QQYHRLTLS | 6.6 nM | 3 of 3 | 2 of 9
KSSQSVLYESRNSNRVA | WASTRES | QQYHPLPLS | 15 nM | 3 of 3 | 4 of 9
FASQNVLYESRNKNSVA | WASTRES | QQYHRLPLS | 23 nM | 2 of 3 | 0 of 9
KSSQSVLYESRWKNSVA | WASTRES | QQYCRLFLS | 25 nM | 3 of 3 | 1 of 9
KSSQSVLYEVPNKNSVA | WASTRES | QQCHRLPLS | 25 nM | 3 of 3 | 2 of 9
KSSQSVLYESRNKNSVA | WASTRED | SQYHRLPLS | 36 nM | 3 of 3 | 2 of 9
KSSQSVLYESRNKNSVA | WAMTRES | QQYGRLPLS | 36 nM | 3 of 3 | 0 of 9
KSSQSVLYESRNKPSVA | YASTRER | QQYHRLPLS | 37 nM | 3 of 3 | 7 of 9
KSSQSVLYESRAKNSVA | WASTRES | QPYHRLSLS | 47 nM | 3 of 3 | 0 of 9
KESQSVLYESRNKNSVA | WASTRES | QKEHRLPLS | 61 nM | 3 of 3 | 0 of 9
KSSQSVLYEHRNHNSVA | WKSTRES | QQYHRLPLS | 63 nM | 3 of 3 | 0 of 9
KSSSSQLYESRNKNCVA | WASTRES | QQYHRLPLS | 68 nM | 3 of 3 | 2 of 9
KSSQGVLYESRNKNSVA | WASNRES | QQYHRLPLS | 69 nM | 3 of 3 | 3 of 9
KSSQSVLYESRNKNSVA | WASTREV | QIYHGLPLS | 79 nM | 3 of 3 | 2 of 9
KSSQSVLYESRNKNSVA | WAHTRES | QQYERLHLS | 100 nM | 3 of 3 | 4 of 9
KSSQSVLYESRHKNSVA | WASTRIS | QQYHRGPLS | 100 nM | 2 of 3 | 0 of 9
KSSQSVVYESRIKNRVA | WASTRES | QQYHRLPLS | 160 nM | 3 of 3 | 2 of 9
VSSQSVLMMSRNKNSVA | WASTRES | QQYHRLPLS | 180 nM | 3 of 3 | 0 of 9
KSSQSVLYLSRNKNPVA | WASTRSS | QQYHRLPLS | 310 nM | 1 of 3 | 0 of 9
KGSQSVLYESRNKNSVA | WASTRES | QMYHRLPLW | 550 nM | 3 of 3 | 0 of 9
KSSQSVLYESRNKNSVA | WSSTRES | QQYRKLPLS | 590 nM | 3 of 3 | 0 of 9
KSSQSVLYEKRQKNSVA | WASTRES | QQYNRLPLS | 640 nM | 3 of 3 | 3 of 9
KSSQSVLYWSRNKNSVA | WAWTRES | QQYHRLPLP | 1.0 µM | 2 of 3 | 0 of 9
PSSQSVLYESRNKNSVA | WAETRES | FQYHRLPLS | 1.4 µM | 1 of 3 | 0 of 9
KSSQSVLYESRNKNSVA | WASTREL | QSYHRLPLS | 2.0 µM | 2 of 3 | 0 of 9
LSSQEVLYESRNKNSVA | NASTRES | QQYHRLPLS | 2.1 µM | 1 of 3 | 4 of 9
KSSQSCLYESRQKNSAA | WASTRES | QQYHRLPLS | 2.3 µM | 1 of 3 | 1 of 9
HSSQSVLYESRYKNSVA | WASTRES | QQYHRLPLD | 3.1 µM | 1 of 3 | 0 of 9

Continued, with the values leading:

Kd | replicates with signal | control signals | CDR-L1 | CDR-L2 | CDR-L3
4.2 µM | 1 of 3 | 0 of 9 | KSSQSVLYNSRNKQSVA | WCSTRES | QQYHRLPLS
5.0 µM | 1 of 3 | 6 of 9 | VSSQSVLYESRNKNSHA | WASTRES | QQYHRLPLS
5.5 µM | 1 of 3 | 0 of 9 | KSSQSVLYESRNKNSVA | WASTRES | HQYTRLELS
5.8 µM | 1 of 3 | 1 of 9 | PSSQSVLYESRNKNSNA | WASTRES | QQYHRLPLS
6.4 µM | 3 of 3 | 1 of 9 | KSSQSVLYESRNKNSVA | WASTEEQ | WQYHRLPLS
10 µM | 2 of 3 | 4 of 9 | KSSQWVLYESRNKNSVP | WASTRES | QQGHRLPLS
13 µM | 1 of 3 | 1 of 9 | KSSQSVLYESRNKNSVA | WTSTRES | QQYHSLPCS
20 µM | 2 of 3 | 5 of 9 | KSSQSWLYEYRNKNSVA | WASTRES | QQYRRLPLS
27 µM | 2 of 3 | 2 of 9 | DSSQSVLYESRNKNSVA | WASTRES | PQYHRLPLS
43 µM | 3 of 3 | 1 of 9 | KSNQDVLYESRNKNSWA | WASTRES | QQYHRLPLS
not detected | 0 of 3 | 0 of 9 | KLSKSVLYESRNKMSVA | WASTRES | QQYHRLPLS
not detected | 0 of 3 | 0 of 9 | KSPQSVLYESRNHNSVA | WASTRES | QQYHSLPLS
not detected | 0 of 3 | 0 of 9 | KSSQSVLYESRVKNSPA | WASTRES | QQTHRLPLS
not detected | 0 of 3 | 0 of 9 | KSSQSVLYASRNKNSPA | WASTTES | QQYHRLPLS
not detected | 0 of 3 | 1 of 9 | KSSQSVLYLSRNKNEVR | WASTRES | QQYHRLPLS
not detected | 0 of 3 | 0 of 9 | KSSQSVLYPSRNKNSVA | WASTRES | YQYHRRPLS
not detected | 0 of 3 | 2 of 9 | KSWQSVLYYSRNKNSVA | WASTRES | QQYHPLPLS
not detected | 0 of 3 | 0 of 9 | KSLQSVLYESRNDNSVY | WASTRES | QQYHRLPLS
not detected | 0 of 3 | 0 of 9 | KSSQWVLYESRNKNSVI | WASTRES | QQYHRLYLS
not detected | 0 of 3 | 0 of 9 | KSSQKVLYWSRNKNSVA | WASTRES | WQYHRLPLS
not detected | 0 of 3 | 0 of 9 | KSSQSVQYESRNKNSGA | WASTRES | QQYHRLPLS
not detected | 0 of 3 | 0 of 9 | KSSQSVLYESRNKNSVL | WQSTRES | QQYHRLQLS
not detected | 0 of 3 | 1 of 9 | KSSQSVLYELRNKNSVA | WQSTREW | QQYHRLPLS
not detected | 0 of 3 | 2 of 9 | KSLTSVLYESRNKNSVA | WASTYES | QQYHRLPLS
not detected | 0 of 3 | 3 of 9 | KSSQSVLYESRNKNRVA | WFSTREY | QQYHRLPLS
not detected | 0 of 3 | 1 of 9 | KSSQSVLTEERNKNSRA | WASTRES | QQYHRLPLS
not detected | 0 of 3 | 1 of 9 | KSSQSVLYESRNKYSVA | WNSTFES | QQYHRLPLS
not detected | 0 of 3 | 2 of 9 | KSSQSVLYESRNKNCWA | WASTRES | QQYHRLTLS
not detected | 0 of 3 | 1 of 9 | KSSQSVLYESRNYNSVG | WASTYES | QQYHRLPLS
not detected | 0 of 3 | 1 of 9 | KSSQSVLYHCRNKNSVA | WASTRES | QQYHRLRLS
not detected | 0 of 3 | 4 of 9 | KSSQSVLYESRNANSVA | WASTRES | QQRHRYPLS
not detected | 0 of 3 | 2 of 9 | KSSQSVLYESRNKNSVA | WASTRNS | PQYHDLPLS
not detected | 0 of 3 | 0 of 9 | KSSQSVLYESRGKNSVA | WESTRES | QQYHRLFLS
not detected | 0 of 3 | 0 of 9 | ASSQSVLYESRNKNSVA | WAPTRES | QQYHRLPLS
not detected | 0 of 3 | 1 of 9 | KSMQSVLYESRNKNSVA | WASTRES | QQYLRLYLS
not detected | 0 of 3 | 2 of 9 | KSSCSVLYESRNKNSVA | WASTEES | QQYHCLPLS
not detected | 0 of 3 | 2 of 9 | KSSQYVLYESKNKNSVA | WASTREL | QQYHRLPLS